This assay concerns the target Histamine H3 receptor (Rattus norvegicus, UniProt Q9QYN8). Put plainly: In vitro binding affinity against histamine H3 receptor from synaptosomes of rat cerebral cortex. Type of assay: subcellular, Brain. In a few lines: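 Rat cerebral cortex synaptosomes; K+-evoked depolarization-induced [3H]histamine release measured for H3 agonist and antagonist activity; intrinsic activity derived from this preparation; at least triplicate.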

Amino acid sequences for entries named in this document (tags omitted). A change or cut given only in a name is not applied to a line headed by its entry.
UniProt Q9QYN8: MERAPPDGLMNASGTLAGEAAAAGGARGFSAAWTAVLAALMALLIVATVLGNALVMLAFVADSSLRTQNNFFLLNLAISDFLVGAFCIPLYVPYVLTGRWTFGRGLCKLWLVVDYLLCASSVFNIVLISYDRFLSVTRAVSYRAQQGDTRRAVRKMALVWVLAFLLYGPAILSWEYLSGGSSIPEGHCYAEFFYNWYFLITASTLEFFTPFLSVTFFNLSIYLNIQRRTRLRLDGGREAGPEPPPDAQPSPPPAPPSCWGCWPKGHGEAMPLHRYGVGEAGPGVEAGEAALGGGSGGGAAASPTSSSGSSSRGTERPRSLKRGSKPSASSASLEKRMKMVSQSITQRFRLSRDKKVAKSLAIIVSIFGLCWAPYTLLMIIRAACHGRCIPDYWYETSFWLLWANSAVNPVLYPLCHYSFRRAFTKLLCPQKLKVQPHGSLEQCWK

`N=C(N)SCCc1cnc[nH]1` [IMETIT] showed a concentration giving a half-maximal response (EC50) of 2.8 nM.

In general, EC50 refers to the concentration giving half of the maximal effect. A low value points to greater potency.

These data come from ChEMBL document CHEMBL1132154, “Novel partial agonists for the histamine H(3) receptor with high in vitro and in vivo activity” (J Med Chem, 1999).
